Experimental findings from ChEMBL document CHEMBL5584220, “Design, synthesis, and biological evaluation of aralkyl piperazine and piperidine derivatives targeting SSRI/5-HT1A/5-HT7” (Bioorg Med Chem, 2024) are described below.

The chains behind the UniProt entries cited, without tags or fusion partners.
UniProt P08908, whole entry: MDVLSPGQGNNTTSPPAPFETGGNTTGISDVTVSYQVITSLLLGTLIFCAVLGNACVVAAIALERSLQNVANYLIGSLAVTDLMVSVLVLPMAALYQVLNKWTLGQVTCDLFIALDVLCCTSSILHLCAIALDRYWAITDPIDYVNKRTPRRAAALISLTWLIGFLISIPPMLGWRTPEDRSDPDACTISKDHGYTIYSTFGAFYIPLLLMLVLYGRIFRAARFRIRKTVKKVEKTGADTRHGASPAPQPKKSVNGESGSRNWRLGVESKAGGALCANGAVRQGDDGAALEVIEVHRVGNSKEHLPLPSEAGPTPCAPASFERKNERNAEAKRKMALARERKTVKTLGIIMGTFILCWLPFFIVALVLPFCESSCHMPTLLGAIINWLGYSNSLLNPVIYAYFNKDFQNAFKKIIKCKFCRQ
UniProt P31645, whole entry, looked up: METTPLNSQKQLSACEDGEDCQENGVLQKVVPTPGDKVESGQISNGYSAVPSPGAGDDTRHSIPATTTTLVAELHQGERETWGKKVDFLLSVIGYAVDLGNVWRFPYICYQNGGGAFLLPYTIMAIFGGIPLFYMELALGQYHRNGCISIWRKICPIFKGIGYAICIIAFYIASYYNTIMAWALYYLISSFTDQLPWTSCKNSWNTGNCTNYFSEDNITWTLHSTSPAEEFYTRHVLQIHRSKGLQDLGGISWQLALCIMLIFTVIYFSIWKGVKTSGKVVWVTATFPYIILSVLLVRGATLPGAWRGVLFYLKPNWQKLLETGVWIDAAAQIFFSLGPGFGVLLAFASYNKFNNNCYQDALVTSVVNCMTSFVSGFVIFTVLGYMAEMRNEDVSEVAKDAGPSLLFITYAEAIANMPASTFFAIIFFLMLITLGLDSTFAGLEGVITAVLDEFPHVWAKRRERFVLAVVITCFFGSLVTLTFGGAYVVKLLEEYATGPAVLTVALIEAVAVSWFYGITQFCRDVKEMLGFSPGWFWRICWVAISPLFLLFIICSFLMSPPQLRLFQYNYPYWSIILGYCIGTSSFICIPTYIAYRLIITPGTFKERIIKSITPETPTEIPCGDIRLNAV
UniProt P34969, whole entry: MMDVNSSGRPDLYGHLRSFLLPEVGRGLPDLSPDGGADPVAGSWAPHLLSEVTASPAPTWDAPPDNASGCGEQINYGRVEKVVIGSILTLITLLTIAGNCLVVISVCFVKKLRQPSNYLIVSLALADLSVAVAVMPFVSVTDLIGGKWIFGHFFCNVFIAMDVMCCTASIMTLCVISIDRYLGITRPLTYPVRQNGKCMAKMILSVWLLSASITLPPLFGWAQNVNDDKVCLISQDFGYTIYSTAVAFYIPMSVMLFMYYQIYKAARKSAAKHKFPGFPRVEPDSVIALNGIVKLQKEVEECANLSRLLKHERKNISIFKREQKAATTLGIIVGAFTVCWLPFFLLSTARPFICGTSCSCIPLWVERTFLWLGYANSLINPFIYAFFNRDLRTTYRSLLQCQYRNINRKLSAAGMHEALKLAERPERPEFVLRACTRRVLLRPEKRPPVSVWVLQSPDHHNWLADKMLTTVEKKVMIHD

Structures are written as SMILES.

Experiment [1] deals with 5-hydroxytryptamine receptor 1A (Homo sapiens, UniProt P08908). Type of experiment: cell membranes. The conditions noted are these: HEK293, Membrane, dose 1.0 µM, time 1.0 hrs.
The target of experiment [2] is Sodium-dependent serotonin transporter (Homo sapiens, UniProt P31645). Nature of the experiment: Inhibition of human SERT expressed in HEK293 cells assessed as reduction in 5-HT reuptake at 1 uM incubated for 30 mins by fluorescent dye uptake assay relative to control. It counts as cell-based.
In experiment [3] the target is 5-hydroxytryptamine receptor 7 (Homo sapiens, UniProt P34969). Type of experiment: cell membranes. The following applies: HEK293, Membrane, dose 1.0 µM, time 1.0 hrs.
Experiment [4] has as its system Mus musculus. The experiment is described as follows: Antidepressant activity in male ICR mouse assessed as reduction in immobility time at 40 mg/kg, po administered for 1 hrs by forced swim test relative to control. It counts as functional. Details: scale not given: the % may be the effect or the level left.
In experiment [5] the test system is Mus musculus. Nature of the experiment: Antidepressant activity in male ICR mouse assessed as reduction in immobility time at 20 mg/kg, po administered for 1 hrs by forced swim test relative to control. More on the design: scale not given: the % may be the effect or the level left. Type of experiment: functional.
The subject of experiment [6] is Mus musculus. The experiment is described as follows: Antidepressant activity in male ICR mouse assessed as reduction in immobility time at 80 mg/kg, po administered for 1 hrs by forced swim test relative to control. It counts as functional. Details: scale not given: the % may be the effect or the level left.

Broadly, the inhibition is the drop in the measured response relative to a control, in per cent.

As for `CSc1ccccc1N1CCN(CCCCCc2c[nH]c3ccc(F)cc23)CC1`, the inhibition in experiment [1] was determined as 99.4%; in experiment [2], 101%; in experiment [3], 97.7%.

On to `CSc1ccccc1N1CCN(CCC(=O)c2c[nH]c3ccc(F)cc23)CC1`, for which the inhibition came to 99.3% in experiment [1], 83.8% in experiment [2] and 96.3% in experiment [3].

For `CCSc1ccccc1N1CCN(CCCc2c[nH]c3ccc(F)cc23)CC1`, the inhibition in experiment [1] was 100%; in experiment [2], 102%; in experiment [3] it was 97.5%.

Regarding `CS(=O)(=O)c1ccccc1N1CCN(CCCc2c[nH]c3ccc(F)cc23)CC1`, the inhibition in experiment [1] turned out to be 91.2%; in experiment [2], 99.8%; in experiment [3], 77.4%.

In the case of `CSc1ccccc1C1=CCN(CCCc2c[nH]c3ccc(F)cc23)CC1`, the inhibition in experiment [1] was 98.9%; in experiment [2], 103%; in experiment [3], 88.3%.

Regarding `CSc1ccccc1N1CCN(CCCc2c[nH]c3ccc(F)cc23)CC1.Cl`, the Activity in the experiment with Mus musculus [4] is 20%; in the experiment on Mus musculus [5], 13%; with Mus musculus [6], 27%.

On to `Fc1ccc(C2=CCN(CCCc3c[nH]c4ccc(F)cc34)CC2)c(-c2ccccc2)c1`, for which the inhibition in experiment [1] was 97.8%; in experiment [2] it was 97.6%; in experiment [3], 96%.

With `Fc1ccc(C23CCN(CCCc4c[nH]c5ccc(F)cc45)CC2O3)c(-c2ccccc2)c1` (configuration not stated), the inhibition stood at 97.3% in experiment [1], 95.3% in experiment [2] and 72.2% in experiment [3].

Take `CSc1ccccc1C1CCN(CCCc2c[nH]c3ccc(F)cc23)CC1`: the results for the inhibition in experiment [1], in experiment [2] and in experiment [3] were 99.6%, 102% and 92.6%, respectively.

As for `OC1(c2ccc(F)cc2-c2ccccc2)CCN(CCCc2c[nH]c3ccc(F)cc23)CC1`, the inhibition in experiment [1] was 100%; in experiment [2], 99.5%; in experiment [3] it was 69.7%.

Turning to `CSc1ccccc1N1CCN(CCCCc2c[nH]c3ccc(F)cc23)CC1`, the inhibition is 100% in experiment [1], 101% in experiment [2] and 97.3% in experiment [3].

As for `C[S+]([O-])c1ccccc1N1CCN(CCCc2c[nH]c3ccc(F)cc23)CC1` (configuration not stated), the inhibition in experiment [1] was determined as 95.9%; in experiment [2], 100%; in experiment [3], 77%.

With `OC(CCN1CCC(c2ccc(F)cc2-c2ccccc2)CC1)c1c[nH]c2ccc(F)cc12` (configuration not stated), the inhibition in experiment [1] is 92%; in experiment [2], 70.8%; in experiment [3] it was 95.9%.

For `CSc1ccccc1N1CCN(CCCc2c[nH]c3ccc(C#N)cc23)CC1`, the inhibition in experiment [1] worked out at 99.1%; in experiment [2], 101%; in experiment [3], 98.5%.
